Measurements: ChEMBL document CHEMBL1132713, “Emerging molecular approaches to pain therapy” (J Med Chem, 1999)

Amino acid sequences for entries named in this document (tags omitted). A change or cut given only in a name is not applied to a line headed by its entry.
UniProt Q00961: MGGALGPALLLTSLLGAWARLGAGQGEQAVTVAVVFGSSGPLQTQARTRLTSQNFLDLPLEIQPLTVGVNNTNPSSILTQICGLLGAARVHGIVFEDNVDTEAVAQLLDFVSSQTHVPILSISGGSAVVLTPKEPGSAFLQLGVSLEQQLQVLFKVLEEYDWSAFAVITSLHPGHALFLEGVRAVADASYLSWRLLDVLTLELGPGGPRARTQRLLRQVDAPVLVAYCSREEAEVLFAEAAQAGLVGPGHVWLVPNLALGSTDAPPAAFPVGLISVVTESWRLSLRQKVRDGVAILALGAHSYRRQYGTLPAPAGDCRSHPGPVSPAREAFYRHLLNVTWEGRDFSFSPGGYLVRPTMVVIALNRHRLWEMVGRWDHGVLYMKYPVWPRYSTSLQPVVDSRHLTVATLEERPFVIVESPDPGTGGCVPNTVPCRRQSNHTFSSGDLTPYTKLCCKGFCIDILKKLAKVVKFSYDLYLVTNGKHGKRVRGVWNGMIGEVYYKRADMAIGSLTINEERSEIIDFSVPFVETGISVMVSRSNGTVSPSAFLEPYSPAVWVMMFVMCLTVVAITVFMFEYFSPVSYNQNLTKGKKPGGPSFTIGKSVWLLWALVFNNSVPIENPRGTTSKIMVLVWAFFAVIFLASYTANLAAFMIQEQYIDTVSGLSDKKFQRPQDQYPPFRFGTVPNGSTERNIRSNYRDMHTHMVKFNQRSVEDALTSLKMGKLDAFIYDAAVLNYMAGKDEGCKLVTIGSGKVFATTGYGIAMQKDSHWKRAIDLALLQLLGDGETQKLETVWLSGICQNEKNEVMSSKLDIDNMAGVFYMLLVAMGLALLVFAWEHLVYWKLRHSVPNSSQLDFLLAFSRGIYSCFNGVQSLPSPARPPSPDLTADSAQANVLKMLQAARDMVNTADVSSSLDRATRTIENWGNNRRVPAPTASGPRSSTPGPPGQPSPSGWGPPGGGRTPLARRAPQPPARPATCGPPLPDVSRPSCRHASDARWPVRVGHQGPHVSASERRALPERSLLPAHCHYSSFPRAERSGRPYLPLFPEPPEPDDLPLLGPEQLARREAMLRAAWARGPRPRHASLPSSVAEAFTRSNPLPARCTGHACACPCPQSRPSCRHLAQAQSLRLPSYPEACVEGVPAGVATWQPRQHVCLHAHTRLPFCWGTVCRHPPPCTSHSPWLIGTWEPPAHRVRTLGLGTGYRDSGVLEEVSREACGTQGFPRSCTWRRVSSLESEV

Target: Glutamate receptor ionotropic, NMDA 2C (Rattus norvegicus, UniProt Q00961)
Test: Compound with the N-methyl-D-aspartate glutamate receptor blocking activity

Ki: 700 nM
Compound: CC12CC3CC(C)(C1)CC(N)(C3)C2 [MEMANTINE]
